Measured values published in PMC8666702 (Hypertension (Dallas, Tex. : 1979), 2021).

Columns and labels:
[1] = test system: essential hypertensive subjects; assay type: in vivo, human
Method in brief: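 Hypertensive adults had antihypertensives withdrawn for 2 weeks, then received one SQ injection at 1, 2.5 or 5 ug/kg, in cohorts of 4 dosed in ascending order. They stayed at least 24 h as inpatients. Adverse events (coded by MedDRA term), vital signs, clinical labs and ECG were listed per subject and summarised by dose. MTD was defined as SBP fall ≥30 mmHg, and escalation stopped if 2 subjects in a cohort reached it.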

[2] = Plasma aldosterone after SQ MANP; assay type: in vivo, human; settings: mean (SEM), n=4
[3] = test system: essential hypertensive subjects; test: Sitting blood pressure and heart rate after SQ MANP; assay type: in vivo, human
[4] = test system: particulate guanylyl cyclase A receptor (GC-A); test: Plasma cGMP after SQ MANP; assay type: in vivo; settings: human, 1, 2.5, 5 ug/kg single SQ, all subjects and timepoints
[5] = Urinary sodium excretion after SQ MANP; assay type: in vivo; settings: human, first 4 hours after SQ administration, 1, 2.5, 5 ug/kg
neprilysin (NEP) = settings: cited from earlier work
[6] = test system: insulin degrading enzyme (IDE); settings: cited from earlier work
normal canines = settings: IV, cited from earlier work
hypertensive rodents = settings: daily for 7 days by SQ injection; cited from earlier work
clinical = settings: human, in vivo, sc
[7] = Pharmacokinetics of plasma MANP
[8] = all doses pooled, single SQ, N=12

CC[C@H](C)[C@@H]1NC(=O)[C@H](CCCNC(=N)N)NC(=O)[C@H](CC(=O)O)NC(=O)[C@H](CCSC)NC(=O)[C@H](CCCNC(=N)N)NC(=O)CNC(=O)CNC(=O)[C@H](Cc2ccccc2)NC(=O)[C@@H](NC(=O)[C@H](CO)NC(=O)[C@H](CO)NC(=O)[C@H](CCCNC(=N)N)NC(=O)[C@H](CCCNC(=N)N)NC(=O)[C@H](CC(C)C)NC(=O)[C@@H](N)CO)CSSC[C@@H](C(=O)N[C@@H](CC(N)=O)C(=O)N[C@@H](CO)C(=O)N[C@@H](Cc2ccccc2)C(=O)N[C@@H](CCCNC(=N)N)C(=O)N[C@@H](Cc2ccc(O)cc2)C(=O)N[C@@H](CCCNC(=N)N)C(=O)N[C@H](C(=O)N[C@H](C(=O)N[C@@H](C)C(=O)N[C@@H](CCCNC(=N)N)C(=O)N[C@@H](CCC(=O)O)C(=O)N[C@@H](CC(=O)O)C(=O)N[C@@H](CCCCN)C(=O)N[C@@H](CCC(N)=O)C(=O)NCC(=O)N[C@@H](Cc2c[nH]c3ccccc23)C(=O)N[C@@H](C)C(=O)O)[C@@H](C)O)[C@@H](C)CC)NC(=O)CNC(=O)[C@H](CC(C)C)NC(=O)CNC(=O)[C@H](CO)NC(=O)[C@H](CCC(N)=O)NC(=O)[C@H](C)NC(=O)CNC1=O [MANP]
Subjects with SBP reduction ≥30 mmHg ([1]; 5 μg/kg cohort, n=4, single SQ): 2 subjects | Plasma creatinine at 24 hours after dosing compared to pre-dose ([1]; 5 μg/kg, data not shown): trended to be lower | Arrhythmia [1, 8]: 0 (0%) n (%) | Dyspnea [1, 8]: 0 (0%) n (%) | Gastrointestinal Symptoms [1, 8]: 0 (0%) n (%) | Light Headedness [1, 8]: 1 (8%) n (%) | Orthostatic Vasovagal Syncope [1, 8]: 1 (8%) n (%) | Paresthesia [1, 8]: 0 (0%) n (%) | Second- or third-degree AV block [1, 8]: 0 (0%) n (%) | Tachycardia [1, 8]: 0 (0%) n (%) | Ventricular fibrillation or asystole [1, 8]: 0 (0%) n (%) | Ventricular tachycardia > 5 beats [1, 8]: 0 (0%) n (%) | Serious AEs ([1]; all doses, N=12): no serious AEs | Changes in laboratory values or ECG from baseline ([1]; all subjects, N=12): No significant changes | ECG changes during the 24 hours of observation ([1]; all subjects, N=12): no ECG changes | Local reactions at the injection sites ([1]; all subjects, N=12, SQ): no local reactions at the injection sites | Maximal tolerated dose (defined as SBP reduction ≥30 mmHg) ([1]; human, single SQ, 2 of four subjects with SBP reduction greater than 30 mmHg): 5 µg/kg | Plasma aldosterone ([2]; 1 ug/kg SQ, 1 Hr post dose, predose 7.18 (1.90)): 5.80 (0.54) ng/dL | Plasma aldosterone ([2]; 1 ug/kg SQ, 3 Hr post dose, predose 7.18 (1.90)): 7.98 (1.69) ng/dL | Plasma aldosterone ([2]; 1 ug/kg SQ, 12 Hr post dose, predose 7.18 (1.90)): 5.55 (1.22) ng/dL | Plasma aldosterone ([2]; 1 ug/kg SQ, 24 Hr post dose, predose 7.18 (1.90)): 7.40 (1.59) ng/dL | Plasma aldosterone ([2]; 1 ug/kg SQ, 15min post dose, predose 7.18 (1.90)): 2.19 (0.58) ng/dL | Plasma aldosterone ([2]; 1 ug/kg SQ, 30 min post dose, predose 7.18 (1.90)): 1.23 (0.46) ng/dL | Plasma aldosterone ([2]; 2.5 ug/kg SQ, 1 Hr post dose, predose 8.70 (3.83)): 4.85 (0.48) ng/dL | Plasma aldosterone ([2]; 2.5 ug/kg SQ, 3 Hr post dose, predose 8.70 (3.83)): 4.00 (0.40) ng/dL | Plasma aldosterone ([2]; 2.5 ug/kg SQ, 12 Hr post dose, predose 8.70 (3.83)): 3.63 (0.39) ng/dL | Plasma aldosterone ([2]; 2.5 ug/kg SQ, 24 Hr post dose, predose 8.70 (3.83)): 5.48 (0.39) ng/dL | Plasma aldosterone ([2]; 2.5 ug/kg SQ, 15min post dose, predose 8.70 (3.83)): 2.45 (2.13) ng/dL | Plasma aldosterone ([2]; 2.5 ug/kg SQ, 30 min post dose, predose 8.70 (3.83)): 3.01 (2.19) ng/dL | Plasma aldosterone ([2]; 5 ug/kg SQ, 1 Hr post dose, predose 7.23 (2.74)): 4.30 (0.81) ng/dL | Plasma aldosterone ([2]; 5 ug/kg SQ, 3 Hr post dose, predose 7.23 (2.74)): 8.35 (3.32) ng/dL | Plasma aldosterone ([2]; 5 ug/kg SQ, 12 Hr post dose, predose 7.23 (2.74)): 4.40 (1.36) ng/dL | Plasma aldosterone ([2]; 5 ug/kg SQ, 24 Hr post dose, predose 7.23 (2.74)): 6.85 (1.84) ng/dL | Plasma aldosterone ([2]; 5 ug/kg SQ, 15min post dose, predose 7.23 (2.74)): 1.61 (1.06) ng/dL | Plasma aldosterone ([2]; 5 ug/kg SQ, 30 min post dose, predose 7.23 (2.74)): 1.98 (1.02) ng/dL | DBP at 24 hours after dosing ([3]; 5 μg/kg cohort): lower | SBP at 24 hours after dosing ([3]; 2.5 and 5 μg/kg cohorts): remained lower than baseline | Heart rate compared to baseline ([3]; dose dependent, most prominent from 4 to 24 hours post SQ injection in the 5 ug/kg cohort): trended to increase | Reduction of SBP ([3]; human, all doses (1 to 5 ug/kg single SQ), no clear dose response): approximately 15 mmHg | Plasma cGMP CMax and AUClast, dose relation [4]: clear dose response with increasing CMax and AUClast | Urinary sodium excretion [5]: dose dependent increase | Enzymatic degradation by NEP (neprilysin (NEP)): highly resistant to enzymatic degradation | Enzymatic degradation by IDE [6]: highly resistant to enzymatic degradation | Aldosterone suppressing action compared to native ANP (normal canines; markedly greater and more sustained): p<0.01 for 150 minutes post infusion | Natriuretic action compared to native ANP (normal canines; p<0.001): greater doubling of natriuresis during infusions | Glomerular filtration enhancing action compared to native ANP (normal canines; p<0.05): more sustained increase in GFR post infusions | BP lowering compared to native ANP (normal canines; p<0.05 greater reduction sustained over 150 minutes post infusion): markedly greater and more sustained BP lowering | cGMP and BP effect (hypertensive rodents): cGMP activation and sustained BP lowering | half-life (clinical; 1 ug/kg): 54 min | half-life (clinical; 2.5 ug/kg): 75 min | half-life (clinical; 5 ug/kg): 55 min | CMax and AUClast of MANP in plasma, dose relation ([7]; human, 1, 2.5, 5 ug/kg single SQ, AUC from zero to 24 h): highest CMax and AUClast occurred with the highest dose of 5 μg/kg | Tmax ([7]; human, plasma, sc): 30 min
